# Data as given in US8710089B2, “Triazole derivatives as ghrelin analogue ligands of growth hormone secretagogue receptors” (Zentaris GmbH, priority 2005, dated 2014).
# The chains behind the UniProt entries cited, without tags or fusion partners.
# UniProt Q92847, whole entry: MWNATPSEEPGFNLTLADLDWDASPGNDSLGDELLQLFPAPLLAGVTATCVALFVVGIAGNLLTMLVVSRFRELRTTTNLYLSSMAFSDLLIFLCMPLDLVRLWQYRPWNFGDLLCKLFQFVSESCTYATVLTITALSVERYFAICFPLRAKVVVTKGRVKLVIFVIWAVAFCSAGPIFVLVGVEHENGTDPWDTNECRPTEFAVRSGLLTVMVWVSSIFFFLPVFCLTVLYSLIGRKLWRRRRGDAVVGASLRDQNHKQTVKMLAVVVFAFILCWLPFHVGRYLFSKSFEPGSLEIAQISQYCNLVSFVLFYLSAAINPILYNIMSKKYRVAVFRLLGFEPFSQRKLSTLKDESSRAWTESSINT
# pIC50: −log10 of the molar value.
# Target: T1, human GHS-R 1a (Homo sapiens, UniProt Q92847)
# T1 construct: expressed in transfected cells; host or cells: LLC PK-1 porcine renal epithelial cells (ECACC No. 86121112), isolated plasma membranes
# Test: GHS-R 1a receptor-ligand binding assay (membrane preparations from transfected LLC PK-1 cells)
# Conditions: displacement of 125I-His9-ghrelin (60 pM); membranes of LLC PK-1 cells transfected with human GHS-R 1a; mean of at least two independent experiments in triplicates
# Description: (J. Med. […] Med. Chem. 2003, 46: 1191-1203), were incubated in homogenization buffer HB [50 mM Tris (pH 7.3), 5 mM MgCl2, 2.5 mM EDTA, and 30 μg/mL bacitracin (Sigma)] for 60 min at 25° C. (steady-state conditions) with 60 pM ^125I-[…]-ghrelin (Amersham) in the presence or absence of competing compounds (compounds of the invention). […] Nonspecific binding was defined using an excess (10^-6 M) of ghrelin. The binding reaction was stopped by addition of 4 mL of ice-cold HB followed by rapid filtration over Whatman GP/C filters presoaked with 0.5% polyethyleneimine to prevent excessive binding of radioligand to the filters. […] In the following table 2 results obtained for selected compounds of the invention are presented in comparison to an example of the prior art. IC50 values given are the mean of at least two independent experiments performed in triplicates.
row,Compound,pIC50
1,"COc1ccc(Cn2c(CCc3ccccc3)nnc2[C@@H](Cc2c[nH]c3ccccc23)NC(=O)CN)cc1 [compound 50, (R)—N-(1-(4-(4-methoxybenzyl)-5-phenethyl-4H-1,2,4-triazol-3-yl)-2-(1H-indol-3-yl)ethyl)-2-aminoacetamide]",7.25
2,"COc1ccc(Cn2c(CCc3ccccc3)nnc2[C@@H](Cc2c[nH]c3ccccc23)NC(=O)[C@@H]2CCCCN2)cc1 [compound 48, (S)—N—((R)-1-(4-(4-methoxybenzyl)-5-phenethyl-4H-1,2,4-triazol-3-yl)-2-(1H-indol-3-yl)ethyl)piperidine-2-carboxamide]",7.96
3,"COc1ccc(Cn2c(CCc3ccccc3)nnc2[C@@H](Cc2c[nH]c3ccccc23)NC(=O)[C@H]2CCCCN2)cc1 [compound 49, (R)—N—((R)-1-(4-(4-methoxybenzyl)-5-phenethyl-4H-1,2,4-triazol-3-yl)-2-(1H-indol-3-yl)ethyl)piperidine-2-carboxamide]",7.64
